Assay results taken from patent US10239856B2.

Legend:
[1] = target: HSP90α (Homo sapiens, UniProt P07900); experiment: Affinity to HSP90α; type: binding; settings: read-out: HSP90 affinity
[2] = tested on: Her-2 (HSP90 client); experiment: Her-2 (HSP90 client) degradation (client depletion); type: cell-based; settings: read-out: Client Depletion; Her-2 degradation

Row | Structure (SMILES) | pIC50 [1] | pIC50 [2]
1 | CCCC1C/C=C/CCCCC(=NOCC(=O)N2CCCCC2)Cc2c(Cl)c(O)cc(O)c2C(=O)O1 (stereo not drawn) | 6.27 | 5.37
2 | CCN(CC)C(=O)CO/N=C1\C=C\CC/C=C/C[C@@H](C)OC(=O)c2c(O)cc(O)cc2C1 | 6.22 | 5.39
3 | CCN(CC)C(=O)CO/N=C1/C=C/CC/C=C/C[C@@H](C)OC(=O)c2c(O)cc(O)cc2C1 | 6.27 | 5.53

pIC50: −log10 of the molar value.
